Where two headings read alike, the source gives them in different places.
Columns and labels:
[1] = system: acetylated H3K9; settings: MV-4-11 cells, Western blot
[2] = under the same conditions; cited from earlier work

O=C(CCCCCCC(=O)Nc1ccccc1)NO [SAHA, suberanilohydroxamic acid]
histone H3K9 acetylation ([1]; 0.1 μM): moderate H3K9 acetylation
histone H3K9 acetylation ([1]; 0.5 μM): promoted histone H3K9 acetylation
KA, binding to Zn^++ [2]: 403 M⁻¹
ΔG, binding to Zn^++ [2]: -3.59 kcal/mol

— paper PMC4440699 (MedChemComm, 2014)
